{
  "source": "patent US20260275055A1",
  "about": "“METHOD FOR PREPARING AN AQUEOUS DISPERSION OF BIOCIDE-FREE ORGANIC OPACIFYING PIGMENT PARTICLES” (priority 2022, published 2026)",
  "tested_on": "standard pool of bacteria, yeasts, and molds obtained from American Type Culture Collection (ATCC) that are common contaminants in coatings",
  "assay": "Microbial resistance challenge test (three inoculations at 7-d intervals, streak plating on TSA and PDA)",
  "data": [
    {"smiles": "CCC(C)(C)OO", "values": [
      {"measurement": "effectiveness as preservative for the aqueous dispersion of opaque polymers", "value": "effective"}
    ]}
  ]
}
